SMILES strings stand for the structures. pIC50: −log10 of the molar value. Converted amounts (≈) assume the structure as drawn. Like-named read-outs stand apart in the source and are kept apart here.

By UniProt entry, the sequences of proteins in these tests, tags left out. Residues count along the entry.
UniProt P29317, 24-976, species assumed: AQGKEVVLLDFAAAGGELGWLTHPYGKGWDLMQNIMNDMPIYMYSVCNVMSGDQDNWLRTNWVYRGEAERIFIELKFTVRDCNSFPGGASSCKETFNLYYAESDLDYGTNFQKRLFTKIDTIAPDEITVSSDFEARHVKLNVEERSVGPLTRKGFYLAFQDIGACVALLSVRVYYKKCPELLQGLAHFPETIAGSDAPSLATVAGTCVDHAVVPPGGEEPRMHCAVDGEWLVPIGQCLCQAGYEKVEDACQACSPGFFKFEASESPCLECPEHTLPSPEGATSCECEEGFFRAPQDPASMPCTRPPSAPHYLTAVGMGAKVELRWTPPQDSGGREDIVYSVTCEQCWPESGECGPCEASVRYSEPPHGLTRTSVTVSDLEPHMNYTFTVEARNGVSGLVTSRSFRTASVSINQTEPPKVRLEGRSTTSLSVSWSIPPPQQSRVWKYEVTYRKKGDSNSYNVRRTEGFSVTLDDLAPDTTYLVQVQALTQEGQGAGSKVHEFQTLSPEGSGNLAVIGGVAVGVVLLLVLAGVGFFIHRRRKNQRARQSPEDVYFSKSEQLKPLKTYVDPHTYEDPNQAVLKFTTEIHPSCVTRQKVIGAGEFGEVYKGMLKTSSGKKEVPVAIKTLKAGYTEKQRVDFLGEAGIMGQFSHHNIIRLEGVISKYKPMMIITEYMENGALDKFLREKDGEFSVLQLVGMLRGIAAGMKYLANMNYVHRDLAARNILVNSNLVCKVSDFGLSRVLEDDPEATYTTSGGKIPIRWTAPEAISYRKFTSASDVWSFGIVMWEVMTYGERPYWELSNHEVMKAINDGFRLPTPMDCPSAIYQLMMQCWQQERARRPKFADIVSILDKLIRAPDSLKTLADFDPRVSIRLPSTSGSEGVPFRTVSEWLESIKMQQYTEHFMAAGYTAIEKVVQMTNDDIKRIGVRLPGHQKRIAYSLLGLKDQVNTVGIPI

Assay [1] concerns the target Epithelial Cell Kinase (ECK) (Homo sapiens, UniProt P29317). Kind of assay: biochemical. The settings on record: nonradioactive format.
Assay [2] relates to human epidermoid tumors (A431). Nature of the assay: In vivo inhibition of the growth of human epidermoid tumors (A431). The protocol:
Representative compounds of this invention (listed below) were evaluated in an in vivo standard pharmacological test procedure which measured its ability to inhibit the growth of human epidermoid tumors. […] BALB/c nu/nu female mice (Charles River, Wilmington, MA) were used in this in vivo standard pharmacological test procedure. A unit of 5 X 10^6 cells were injected SC into mice. When tumors attained a mass of between 100 and 150 mg, the mice were randomized into treatment groups (day zero). […] Control animals received no drug. Tumor mass was determined every 7 days [(length X width^2)/2] for 28 days post staging. Relative tumor growth (Mean tumor mass on days 7, 14, 21, and 28 divided by the mean tumor mass on day zero) is determined for each treatment group.

The test system of the next assay is SW620. Kind of assay: Inhibition of cancer cell growth as measured by cell number, SW620.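 As to all read-outs here: SW620 was included as a cell line with little or no EGFR or HER2/neu expression, in contrast to receptor-overexpressing lines.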 The format is cell-based, human. The settings on record: Table 8; for IC50: Homo sapiens, SW-620, 48 h, read-out: IC50 SW620, cell number, Sulforhodamine B, 48 hours exposure.
A further assay concerns SKBR3. Nature of the assay: Inhibition of cancer cell growth as measured by cell number, SKBR3.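 As to all read-outs here: SK-BR-3 cells were selected as a line overexpressing HER2/neu.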 Type of assay: cell-based, human. The note with it: Table 8; for IC50: Homo sapiens, SK-BR-3, 48 h, read-out: IC50 SKBR3, cell number, Sulforhodamine B, 48 hours exposure; for IC50 SKBR3: cell number, Sulforhodamine B, 48 hours exposure.
Where [3] appears, read: 10 mg/kg/dose IP on days 1 through 10.
The mark [4] stands for this setting: 50 mg/kg/dose IP on days 1 through 10.
The mark [5] stands for this setting: 100 mg/kg/dose IP on days 1 through 10.
Where [6] appears, read: Table 11, 80 mg/kg/dose IP on days 1,5 and 9.
Setting [7] is: Table 11, 80 mg/kg/dose PO on days 1 through 10.

Consider `CCOc1cc2ncc(C#N)c(Nc3cccc(Br)c3)c2cc1OCC` [Example 47, 4-[(3-Bromophenyl)amino]6,7-diethoxy-3-quinolinecarbonitrile], for which the negative logarithm of the IC50 (pIC50) (commonly the negative decadic logarithm of the IC50, by convention in mol/L) in assay [1] (Eck IC50, pH 7.2) was < 4.62. In addition, in assay [2] (setting [3]), the “Relative Tumor Growth Day 7” value is on record as 3.22, the “Relative Tumor Growth Day 14” value amounted to 6.75, the “Relative Tumor Growth Day 21” value came out at 13.38 and the “Relative Tumor Growth Day 28” value is on record as 18.59. In assay [2] (setting [4]), the “Relative Tumor Growth Day 7” value is 2.05, the “Relative Tumor Growth Day 14” value came to 5.04, the “Relative Tumor Growth Day 21” value amounted to 10.02 and the “Relative Tumor Growth Day 28” value worked out at 14.01. Moreover, in assay [2] (setting [5]), the “Relative Tumor Growth Day 7” value was 1.57, the “Relative Tumor Growth Day 14” value turned out to be 3.36, the “Relative Tumor Growth Day 21” value came out at 5.90 and the “Relative Tumor Growth Day 28” value is listed as 5.85.

For `COc1cc2c(Nc3ccc(Cl)cc3F)c(C#N)cnc2cc1OCCCCl` [Example 76, 4-(4-Chloro-2-fluoro-phenylamino)-7-(3-chloro-propoxy)-6-methoxy-quinoline-3-carbonitrile], the IC50 (in general, the midpoint of a concentration-inhibition curve) in the assay with SW620 was found to be 2.31 µg/mL (≈ 5.5 µM); with SKBR3, 1.89 µg/mL (≈ 4.49 µM).

Consider `COc1cc2c(Nc3ccc(Cl)cc3F)c(C#N)cnc2cc1OCCCN1CCOCC1` [Example 81, 4-(4-Chloro-2-fluoro-phenylamino)-6-methoxy-7-(3-morpholin-4-yl-propoxy)-quinoline-3-carbonitrile], for which the results for the concentration for half-maximal inhibition (IC50) in the assay with SW620 and with SKBR3 were 2.08 µg/mL (≈ 4.43 µM) and 1.44 µg/mL (≈ 3.06 µM), respectively.

For the compound `N#Cc1cnc2ccc(NC(=O)C=CCN3CCOCC3)cc2c1Nc1ccc(F)c(Br)c1` [Example 174, N-{4-[(3-Bromo-4-fluorophenyl)amino]-3-cyano-6-quinolinyl] -4-morpholino-2-butenamide], in the assay on SKBR3, the IC50 worked out at 0.298 µg/mL (≈ 0.584 µM).

`CN1CCN(CC#CC(=O)Nc2ccc3ncc(C#N)c(Nc4cccc(Br)c4)c3c2)CC1` [Example 190, N-[4-[(3-Bromophenyl)amino]-3-cyano-6-quinolinyl]-4-(N-methylpiperazino)-2-butynamide]: the IC50 in the assay on SW620 is 4.88 µg/mL (≈ 9.7 µM).

With `CC(C)N(C)CC#CC(=O)Nc1ccc2ncc(C#N)c(Nc3cccc(Br)c3)c2c1` [Example 191, N-[4-[(3-Bromophenyl)amino]-3-cyano-6-quinolinyl]-4-(N-isopropyl-N-methylamino)-2-butynamide], the IC50 in the assay with SW620 is 0.084 µg/mL (≈ 0.176 µM).

As to `COc1cc2ncc(C#N)c(Nc3cccc(Br)c3)c2cc1NC(=O)C=CCN1CCOCC1` [Example 200, 4-Morpholin-4-yl-but-2-enoic acid [4-(3-bromo-phenylamino)-3-cyano-7-methoxy-quinolin-6-yl]-amide], the IC50 in the assay on SKBR3 was found to be 0.247 µg/mL (≈ 0.473 µM).

As to `COc1cc2ncc(C#N)c(Nc3ccc(F)c(Cl)c3)c2cc1NC(=O)C=CCN(C)C` [Example 203, 4-Dimethylamino-but-2-enoic acid [4-(3-chloro-4-fluorophenylamino)-3-cyano-7-methoxy-quinolin-6-yl]-amide], the IC50 in the assay with SW620 came out at 1.73 µg/mL (≈ 3.82 µM).

For `CCN(CC)CC=CC(=O)Nc1cc2c(Nc3ccc(F)c(Cl)c3)c(C#N)cnc2cc1OC` [Example 204, 4-Diethylamino-but-2-enoic acid [4-(3-chloro-4-fluorophenylamino)-3-cyano-7-methoxy-quinolin-6-yl]-amide], in the assay on SW620, the IC50 came out at 0.34 µg/mL (≈ 0.705 µM). Moreover, in the assay with SW620 (cell number, Sulforhodamine B, 48 hours exposure), the “IC50 SW620” value came to 0.347 µg/mL (≈ 0.72 µM). In the assay on SKBR3, the 50% inhibitory concentration (IC50) is 0.026 µg/mL (≈ 0.0539 µM) and the “IC50 SKBR3” value amounted to 0.029 µg/mL (≈ 0.0602 µM).

As for `COc1cc2ncc(C#N)c(Nc3ccc(F)c(Cl)c3)c2cc1NC(=O)C=CCN1CCOCC1` [Example 205, 4-Morpholin-4-yl-but-2-enoic acid [4-(3-chloro-4-fluorophenylamino)-3-cyano-7-methoxy-quinolin-6-yl]-amide], the IC50 in the assay on SKBR3 stood at 0.243 µg/mL (≈ 0.49 µM).

`COc1cc2ncc(C#N)c(Nc3ccc(F)c(Br)c3)c2cc1NC(=O)C=CCN(C)C` [Example 208, 4-Dimethylamino-but-2-enoic acid [4-(3-bromo-4-fluorophenylamino)-3-cyano-7-methoxy-quinolin-6-yl]-amide]: the pIC50 in assay [1] (Eck IC50, pH 7.2) is < 4.40. For the same compound, in assay [2] (setting [6]), the “Relative Tumor Growth Day 7” value turned out to be 0.82, the “Relative Tumor Growth Day 14” value came to 2.29, the “Relative Tumor Growth Day 21” value stood at 4.80 and the “Relative Tumor Growth Day 28” value is recorded as 8.09. In assay [2] (setting [7]), the “Relative Tumor Growth Day 7” value was 0.40, the “Relative Tumor Growth Day 14” value came out at 0.99, the “Relative Tumor Growth Day 21” value was found to be 1.46 and the “Relative Tumor Growth Day 28” value came out at 2.63. Moreover, the “tumor growth relative to animals that did not receive any drug” value in assay [2] (summary in words of Tables 10 and 11) is “significantly inhibited tumor growth”.

On to `CCOc1cc2ncc(C#N)c(Nc3cccc(Br)c3)c2cc1NC(=O)C=CCN(CC)CC` [Example 217, 4-Diethylamino-but-2-enoic acid [4-(3-bromo-phenylamino)-3-cyano-7-ethoxy-quinolin-6-yl]-amide], for which, in the assay on SKBR3, the IC50 worked out at 0.019 µg/mL (≈ 0.0364 µM) and the “IC50 SKBR3” value was 0.033 µg/mL (≈ 0.0632 µM).

For the compound `COc1cc2ncc(C#N)c(Nc3cccc(CSC(C)=O)c3)c2cc1OC` [Example 269, 4-[3-(Acetylthiomethyl)phenylamino]-6,7-dimethoxy-3-quinolinecarbonitrile], the pIC50 in assay [1] (Eck IC50, pH 7.2) was < 4.29.

In the case of `COc1cc2ncc(C#N)c(Nc3cccc(CS)c3)c2cc1OC` [Example 270], the pIC50 in assay [1] (Eck IC50, pH 7.2) is > 7.24.

For `COc1cccc2c(Nc3ccc(Cl)cc3F)c(C#N)cnc12` [Example 275, 4-(4-Chloro-2-fluoro-phenylamino)-8-methoxy-quinoline-3-carbonitrile], the pIC50 in assay [1] (Eck IC50, pH 7.2) is < 4.21.

Turning to `COc1cccc2c(Nc3cccc(N(C)C)c3)c(C#N)cnc12` [Example 277, 4-(3-Dimethylamino-phenylamino)-8-methoxy-quinoline-3-carbonitrile], the pIC50 in assay [1] (Eck IC50, pH 7.2) is < 4.20.

For the compound `COc1cccc2c(Nc3ccc(Br)c(O)c3)c(C#N)cnc12` [Example 278, 4-(4-Bromo-3-hydroxy-phenylamino)-8-methoxy-quinoline-3-carbonitrile], in assay [1] (Eck IC50, pH 7.2), the pIC50 was < 4.27.

Turning to `COc1ccc(Nc2c(C#N)cnc3c(OC)cccc23)cc1O` [Example 279, 4-(3-Hydroxy-4-methoxy-phenylamino)-8-methoxy-quinoline-3-carbonitrile], the pIC50 in assay [1] (Eck IC50, pH 7.2) is < 4.21.

In the case of `COc1cccc2c(Nc3c(F)cc(F)cc3F)c(C#N)cnc12` [Example 280, 8-Methoxy-4-(2,4,6-trifluoro-phenylamino)-quinoline-3-carbonitrile], the pIC50 in assay [1] (Eck IC50, pH 7.2) was < 4.52.

With `COc1cc2ncc(C#N)c(Nc3cc(C)c(O)c(C)c3)c2cc1OC` [Example 288, 4-(4-Hydroxy-3,5-dimethyl-phenylamino)-6,7-dimethoxy-quinoline-3-carbinitile], in assay [1] (read-out: Eck IC50, pH 7.2), the pIC50 is 8.85.

On to `COc1cc2ncc(C#N)c(Nc3cc(Cl)ccc3O)c2cc1OC` [Example 290, 4-(5-Chloro-2-hydroxy-phenylamino)-6,7-dimethoxy-quinoline-3-carbonitrile], for which the pIC50 in assay [1] (Eck IC50, pH 7.2) is < 4.55.

For the compound `COc1cc2ncc(C#N)c(Nc3cc(Br)c(O)c(Br)c3)c2cc1OC` [Example 291, 4-(3,5-Dibromo-4-hydroxy-phenylamino)-6,7-dimethoxy-quinoline-3-carbonitrile], the pIC50 in assay [1] (Eck IC50, pH 7.2) is < 4.68.

`COc1cc2ncc(C#N)c(Nc3cc(C)ccc3O)c2cc1OC` [Example 295, 4-(2-Hydroxy-5-methyl-phenylamino)-6,7-dimethoxy-quinoline-3-carbonitrile]: in assay [1] (Eck IC50, pH 7.2), the pIC50 was < 4.53.

In the case of `CCCOc1cc2ncc(C#N)c(Nc3cccc(Br)c3)c2cc1OCCC` [Example 303, 4-(3-Bromophenylamino)-6.7-di-n-propoxy-3-quinolinecarbonitrile], the pIC50 in assay [1] (Eck IC50, pH 7.2) was < 4.64.

On to `CCCCOc1cc2ncc(C#N)c(Nc3cccc(Br)c3)c2cc1OCCCC` [Example 305, 4-(3-Bromophenylamino)-6,7-di-n-butoxy-3-quinolinecarbonitrile], for which the pIC50 in assay [1] (Eck IC50, pH 7.2) is < 4.37.

On to `COc1ccc2c(Nc3ccc(Cl)cc3F)c(C#N)cnc2c1` [Example 307, 4-(4-Chloro-2-fluorophenylamino)-7-methoxy-3-quinolinecarbonitrile], for which, in assay [1] (Eck IC50, pH 7.2), the pIC50 is < 4.21.

With `N#Cc1cnc2cc(O)ccc2c1Nc1ccc(Cl)cc1F` [Example 308, 4-(4-Chloro-2-fluorophenylamino)-7-hydroxy-3-quinolinecarbonitrile], the pIC50 in assay [1] (Eck IC50, pH 7.2) is < 4.20.

Turning to `COCCOc1cc2ncc(C#N)c(Nc3cccc(Br)c3)c2cc1OCCOC` [Example 311, 4-[(3-Bromophenyl)amino]-6,7-bis(2-methoxyethoxy)-3-quinolinecarbonitrile], the pIC50 in assay [1] (Eck IC50, pH 7.2) is < 4.67.

Source of the values: EP0973746B1, “SUBSTITUTED 3-CYANO QUINOLINES” (Wyeth Holdings Corporation, priority 1997, dated 1998).
